According to patent US8629135B2, “Pharmaceutical compositions comprising RET inhibitors and methods for the treatment of cancer” (Queen's University at Kingston, priority 2008, dated 2014):

How the values were obtained:
BxPc3 tumours = settings: BxPc3 xenograft study
MiaPaca-2 tumours = experiment: Xenograft study, subcutaneous MiaPaca-2 tumours; settings: MiaPaca-2 xenograft study

CN(C)CCC=C1c2ccccc2C=Cc2ccccc21.Cl [SW-01, Cyclobenzaprine Hydrochloride]
animal weight (BxPc3 tumours): animal weight between the groups was maintained
animal weight (MiaPaca-2 tumours): animal weight between the groups was maintained
